Only a part is listed here, and it is no random draw. Calls of active or inactive are those of the source. Calls come from the whole dose curve; as a rule, active = well fitted inhibition curve with a large enough effect; inconclusive = small, poorly fitted or top-dose-only effect; inactive = no such curve, though single readings can be large or run the other way. A call without a number means that no potency is given here.
Potency is the fitted concentration of half-maximal effect.

Protein sequences, listed by entry. Tags and fused reporters are not part of them.
UniProt Q14191, whole entry, looked up: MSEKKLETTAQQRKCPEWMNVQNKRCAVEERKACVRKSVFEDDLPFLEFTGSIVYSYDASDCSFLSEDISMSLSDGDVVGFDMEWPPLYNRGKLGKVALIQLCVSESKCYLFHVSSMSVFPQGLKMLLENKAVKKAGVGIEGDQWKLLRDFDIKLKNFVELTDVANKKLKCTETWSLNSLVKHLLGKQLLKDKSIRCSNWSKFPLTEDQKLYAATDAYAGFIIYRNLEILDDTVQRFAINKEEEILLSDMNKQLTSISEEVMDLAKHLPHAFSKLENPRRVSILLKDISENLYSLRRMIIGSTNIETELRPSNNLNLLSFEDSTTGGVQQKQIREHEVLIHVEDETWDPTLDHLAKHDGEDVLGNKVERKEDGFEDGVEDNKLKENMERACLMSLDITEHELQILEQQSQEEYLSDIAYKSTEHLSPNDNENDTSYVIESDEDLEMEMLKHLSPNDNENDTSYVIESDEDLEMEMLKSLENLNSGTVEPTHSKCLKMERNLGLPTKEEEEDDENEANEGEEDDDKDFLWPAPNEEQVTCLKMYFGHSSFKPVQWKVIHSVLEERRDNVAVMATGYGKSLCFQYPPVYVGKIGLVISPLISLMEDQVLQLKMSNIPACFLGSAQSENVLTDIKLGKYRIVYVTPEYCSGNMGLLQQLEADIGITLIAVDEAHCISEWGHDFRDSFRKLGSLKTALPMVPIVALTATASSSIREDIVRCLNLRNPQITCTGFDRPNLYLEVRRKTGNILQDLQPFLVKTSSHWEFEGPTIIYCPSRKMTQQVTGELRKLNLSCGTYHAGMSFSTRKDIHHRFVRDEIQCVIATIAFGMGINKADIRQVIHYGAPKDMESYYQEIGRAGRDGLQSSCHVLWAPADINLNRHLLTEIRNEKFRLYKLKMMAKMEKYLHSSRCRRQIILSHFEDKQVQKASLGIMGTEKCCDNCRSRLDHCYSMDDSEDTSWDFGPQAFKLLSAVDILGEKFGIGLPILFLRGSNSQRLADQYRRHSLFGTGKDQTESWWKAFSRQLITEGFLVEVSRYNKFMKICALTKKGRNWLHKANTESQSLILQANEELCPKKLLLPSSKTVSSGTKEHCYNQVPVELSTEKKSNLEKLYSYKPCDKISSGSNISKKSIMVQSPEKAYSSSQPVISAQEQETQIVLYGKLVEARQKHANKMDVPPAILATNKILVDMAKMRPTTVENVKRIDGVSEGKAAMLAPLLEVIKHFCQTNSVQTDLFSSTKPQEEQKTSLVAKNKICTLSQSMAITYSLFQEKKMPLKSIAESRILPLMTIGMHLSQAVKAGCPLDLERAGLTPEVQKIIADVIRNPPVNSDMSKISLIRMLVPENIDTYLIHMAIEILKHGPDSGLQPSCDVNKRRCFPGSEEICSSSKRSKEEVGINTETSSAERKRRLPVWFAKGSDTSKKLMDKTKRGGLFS

The target in this test is Bifunctional 3'-5' exonuclease/ATP-dependent helicase WRN (Homo sapiens) (UniProt Q14191). Briefly: qHTS for Inhibitors of WRN Helicase. Note: nearly all actives have a fitted effect of over 55% in size. To be noted: WRN helicase unwinding, fluorescent forked duplex, kinetic; series mostly up to 114 µM. An excerpt: Inhibition of DNA repair is proposed as a strategy for combating cancer. Synthetic lethality is an approach that exploits preexisting DNA repair deficiencies in certain tumors to develop inhibitors of DNA repair pathways that compensate for the tumor-associated DNA repair deficiency. Because helicases play critical roles in the DNA damage response and in DNA repair, particularly in actively dividing and replicating cells, characterization of synthetic lethal relationships of DNA helicases may be of value in developing improved anticancer treatment strategies; moreover, small molecules that specifically target a given DNA helicase may be useful for understanding its role in cellular nucleic acid metabolism. The goal of this project is to identify small molecule, non-covalent chemical inhibitors of the Werner syndrome (WS) helicase (WRN), which plays an important role in cell proliferation, the replication stress response, and DNA repair. […] The WRN gene product that is defective in the chromosomal instability disorder has DNA helicase and exonuclease activities and interacts with a number of nuclear proteins to maintain genomic stability. We will employ an optimized high-throughput screening assay that utilizes a fluorescence intensity modulation scheme with a fluorophore and quencher positioned near one another within a duplex deoxyoligonucleotide that contains a single forked structure. After a high-throughput screen of the ~350,000-member Molecular Libraries Small Molecule Repository (MLSMR) collection, followed by data analysis and hit selection, a panel of confirmatory, as well as secondary and ternary, assays will be employed to identify high-confidence WRN inhibitors. Structure-activity relationships will be investigated for the top candidate inhibitor series through medchem expansion. These are the results of the primary screening campaign against the MLSMR. NIH Chemical Genomics Center [NCGC] NIH Molecular Libraries Probe Centers Network [MLPCN] MLPCN Grant: MH096530 Assay Submitter (PI): Robert Brosh, National Institute of Aging
Three muL of reagents (buffer in columns 3 and 4 as negative controls; WRN at 20 nM final concentration in columns 1 and 2 as positive controls; columns 5-48 as test reactions) will be dispensed into a 1536-well Greiner black plate via solenoid-valve based nanoliter dispensers. Compounds (23 nL each in columns 5-48) and control (23 nL each in column 2 as dose-response) will be transferred via a Kalypsys pintool equipped with a 1536-pin array. Plates will be incubated for 15 min at room temperature, and then 1 µL of substrate (100 nM forked duplex oligonucleotide and 2 mM ATP final concentrations) will be added to start reaction, and plate will be transferred into a ViewLux high-throughput CCD imager where reaction progress is measured in kinetic mode using standard red-fluorescence optics (excitation filter 525 nm, emission filter 598 nm).
On the technique in general: Quantitative high-throughput screening tests each substance at several concentrations.
Regarding `Cc1ccc2nc3c(c(C)c2c1)CC(C(Cl)Cl)S3` (stereo not given), the Potency entry is “inactive”.
Under `[N-]=[N+]=NC1CCCCC1NC(=O)c1cc([N+](=O)[O-])cc([N+](=O)[O-])c1` (stereo not given) stands “inactive”.
For the compound `Cc1ccc(OP(=O)(Nc2ccc([N+](=O)[O-])cn2)Oc2ccc(C)cc2)cc1`, the Potency result was “inactive”.
With `CC(C)c1ccc(OP(=O)(Nc2ccccn2)Oc2ccccc2F)cc1` (stereo not given) the entry was “inactive”; with `COC(=O)C1(C)COP(=O)(N2CCCCCC2)OC1` (stereo not given), “inactive”.
Under `ClCCSc1nnc(-c2cccnc2)o1` stands “inactive”; under `O=C(OC1CN2CCC1CC2)c1cccc2[nH]cnc12` (stereo not given), “inactive”.
For `CCN(CC)C(=S)SC(NC=O)C(Cl)(Cl)Cl` (stereo not given), the Potency result was “inactive”.
With `CC(C)NC(=O)NP(=O)(Oc1ccccc1)Oc1ccccc1` the entry was “inactive”.
With `O=[N+]([O-])c1cc([N+](=O)[O-])c(-c2ccn[nH]2)s1` the entry was “inactive”; with `CC1CCNP(=O)(N(CCCl)CCCl)O1` (stereo not given), “inactive”; with `CCOC(=O)Nc1ccc([As](=O)(O)O)c(O)c1`, “inactive”.
With `O=C(O)C(O)c1ccc(N(CCCl)CCCl)cc1` (stereo not given) the entry was “inactive”.
For the compound `CCCCOc1ccc(C(=O)NCC2(N3CCCCC3)CCCCC2)cc1OC`, the Potency result is “inactive”.
`Cc1cc(SC(NC(=O)c2ccccc2)C(Cl)(Cl)Cl)nc(C(C)C)n1` (stereo not given): the Potency entry is “inactive”.
Under `COP(=O)(OC)N1CC1c1ccccc1` (stereo not given) stands “inactive”.
With `CCOC(=O)Nc1cccc([As](=O)(O)O)c1` the entry was “inactive”; with `O=[N+]([O-])c1ccc(Nc2ccc(Oc3ccc([N+](=O)[O-])cc3[N+](=O)[O-])cc2)c([N+](=O)[O-])c1`, “inactive”; with `O=P(Nc1ccccn1)(c1cccc2ccccc12)c1cccc2ccccc12`, “inactive”.
With `Cc1cc(SC(NC=O)C(Cl)(Cl)Cl)ncn1` (stereo not given) the figure was active: 50.1 µM; with `COP1(=S)c2c(C)nn(CCC#N)c2N=C(c2ccc(F)cc2)N1C` (stereo not given), “inactive”; with `COC(=O)C1(C)COP(=O)(N2CCCC2)OC1` (stereo not given), “inactive”.
As for `O=C(COc1ccccc1)OC1CN2CCC1CC2` (stereo not given), the Potency result is “inactive”.
With `O=C(Nc1ccncc1[N+](=O)[O-])c1ccc([N+](=O)[O-])cc1[N+](=O)[O-]` the entry was “inactive”; with `O=C(O)C(=O)c1ccc(N(CCCl)CCCl)cc1`, “inactive”.
Under `CCOC(=O)c1ccc(NC(=O)C(C)(CCl)SC)cc1` (stereo not given) stands “inactive”; under `O=C(OC1CN2CCC1CC2)c1cccc([N+](=O)[O-])c1` (stereo not given), “inactive”; under `CSc1ccc(Nc2c([N+](=O)[O-])cc([N+](=O)[O-])cc2[N+](=O)[O-])cc1`, “inactive”.
With `CCC(C)N(CC(C)C)C(=S)SC(NC(C)=O)C(Cl)(Cl)Cl` (stereo not given) the entry was “inactive”; with `COc1ccc(C2=NCC(CBr)S2)cc1` (stereo not given), “inactive”; with `O=[N+]([O-])c1cccc2n[nH]nc12`, “inactive”.
Consider `CC(=O)N1C2C3N(C(C)=O)C1C1N(C(C)=O)C(C(N1C(C)=O)N3C(C)=O)N2C(C)=O`, for which the Potency result was “inactive”.
With `Cc1ccc(NP(=O)(Oc2ccccc2)Oc2ccccc2)nc1` the entry was “inactive”; with `CCc1nc2c(n1)c1c(non1O)c1c2no[n+]1[O-]`, “inactive”; with `O=[N+]([O-])c1cc([N+](=O)[O-])c(CCNc2ccccc2)c([N+](=O)[O-])c1`, “inactive”.
In the case of `Nc1ccc([As](=O)(O)c2ccc(N)cc2)cc1`, the Potency result was “inactive”.
With `CCN(/C(=N/P(=O)(N1CCOCC1)N1CCOCC1)N1CCOCC1)c1ccc(OC)cc1` the entry was “inactive”; with `CC(C)=N/N=C(\N)N[N+](=O)[O-]`, “inactive”.
In the case of `CC(C)c1nc(Nc2ccccc2)n(P(=O)(N(C)C)N(C)C)n1`, the Potency result is “inactive”.
With `CN(C)C(=O)OCCc1n(C)cc[n+]1C` the entry was “inactive”.
With `c1cc(-c2nn[nH]n2)ccc1-c1nn[nH]n1` the entry was “inactive”; with `CC1CCN(C(=O)Oc2c(Cl)cc(Cl)c3cccnc23)CC1`, “inactive”; with `O=P1(N(CCCl)CCCl)OCCCS1` (stereo not given), “inactive”.
With `O=C(Nc1cc([As](=O)(O)O)ccc1O)c1ccccc1`, the Potency result was “inactive”.
As for `CC(C)(C)C(=O)NC(Sc1ccncn1)C(Cl)(Cl)Cl` (stereo not given), the Potency entry is “inactive”.
Under `O=[N+]([O-])c1ncn(CCn2ncnc2[N+](=O)[O-])n1` stands “inactive”.
With `O=[N+]([O-])c1cccc(NC2=NCC(CBr)S2)c1` (stereo not given) the entry was “inactive”.
Under `COC(=O)C1(C)COP(=O)(Nc2ccccc2)OC1` (stereo not given) stands “inactive”; under `O=C(O)CNc1ccc([As](=O)(O)O)cc1`, “inactive”.
Turning to `O=C(O)c1ccccc1[As](=O)(O)O`, the Potency result was “inactive”.
With `CC(=O)Nc1ccc([As](=O)(O)O)cc1` the entry was “inactive”.
With `CCCC1OP(N)(=O)OCC1CC` (stereo not given) the entry was “inactive”; with `CN(C)P(=O)(N(C)C)n1c(Nc2ccccc2)nnc1-c1ccccc1`, “inactive”.
Under `O=P(Nc1nc2ccc(Cl)cc2s1)(c1ccccc1)c1ccccc1` stands “inactive”.
For `CCOP(=O)(Nc1ccccc1)OCC`, the Potency entry was “inactive”.
Turning to `Cc1cc(SC(NC(=O)c2ccc(F)cc2)C(Cl)(Cl)Cl)ncn1` (stereo not given), the Potency is active: 56.2 µM.
Under `Cc1ccc(NP(=O)(Oc2ccccc2F)Oc2ccccc2F)nc1` stands “inactive”.
With `CN(C(=O)Cc1ccc(Cl)c(Cl)c1)[C@H]1CCCC[C@@H]1N1CCCC1` the entry was “inactive”; with `CCN(N=Nc1nonc1N)c1nonc1N`, “inactive”.
With `Nc1cccc2ccc([As](=O)(O)O)cc12` the entry was “inactive”.

Values taken from PubChem BioAssay AID651768 (National Center for Advancing Translational Sciences (NCATS), 2012).
